{"sequences": {"note": "Protein sequences, listed by entry. Tags and fused reporters are not part of them. Residues count along the entry.", "UniProt P00521, 128-379 limits assumed": "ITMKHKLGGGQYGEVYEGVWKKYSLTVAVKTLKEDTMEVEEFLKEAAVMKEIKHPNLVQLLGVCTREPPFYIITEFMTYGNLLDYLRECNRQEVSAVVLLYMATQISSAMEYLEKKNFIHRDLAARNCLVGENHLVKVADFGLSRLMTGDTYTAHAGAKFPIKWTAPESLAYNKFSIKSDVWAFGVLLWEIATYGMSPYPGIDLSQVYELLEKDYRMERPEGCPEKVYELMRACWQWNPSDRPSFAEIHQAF", "UniProt P00519, whole entry": "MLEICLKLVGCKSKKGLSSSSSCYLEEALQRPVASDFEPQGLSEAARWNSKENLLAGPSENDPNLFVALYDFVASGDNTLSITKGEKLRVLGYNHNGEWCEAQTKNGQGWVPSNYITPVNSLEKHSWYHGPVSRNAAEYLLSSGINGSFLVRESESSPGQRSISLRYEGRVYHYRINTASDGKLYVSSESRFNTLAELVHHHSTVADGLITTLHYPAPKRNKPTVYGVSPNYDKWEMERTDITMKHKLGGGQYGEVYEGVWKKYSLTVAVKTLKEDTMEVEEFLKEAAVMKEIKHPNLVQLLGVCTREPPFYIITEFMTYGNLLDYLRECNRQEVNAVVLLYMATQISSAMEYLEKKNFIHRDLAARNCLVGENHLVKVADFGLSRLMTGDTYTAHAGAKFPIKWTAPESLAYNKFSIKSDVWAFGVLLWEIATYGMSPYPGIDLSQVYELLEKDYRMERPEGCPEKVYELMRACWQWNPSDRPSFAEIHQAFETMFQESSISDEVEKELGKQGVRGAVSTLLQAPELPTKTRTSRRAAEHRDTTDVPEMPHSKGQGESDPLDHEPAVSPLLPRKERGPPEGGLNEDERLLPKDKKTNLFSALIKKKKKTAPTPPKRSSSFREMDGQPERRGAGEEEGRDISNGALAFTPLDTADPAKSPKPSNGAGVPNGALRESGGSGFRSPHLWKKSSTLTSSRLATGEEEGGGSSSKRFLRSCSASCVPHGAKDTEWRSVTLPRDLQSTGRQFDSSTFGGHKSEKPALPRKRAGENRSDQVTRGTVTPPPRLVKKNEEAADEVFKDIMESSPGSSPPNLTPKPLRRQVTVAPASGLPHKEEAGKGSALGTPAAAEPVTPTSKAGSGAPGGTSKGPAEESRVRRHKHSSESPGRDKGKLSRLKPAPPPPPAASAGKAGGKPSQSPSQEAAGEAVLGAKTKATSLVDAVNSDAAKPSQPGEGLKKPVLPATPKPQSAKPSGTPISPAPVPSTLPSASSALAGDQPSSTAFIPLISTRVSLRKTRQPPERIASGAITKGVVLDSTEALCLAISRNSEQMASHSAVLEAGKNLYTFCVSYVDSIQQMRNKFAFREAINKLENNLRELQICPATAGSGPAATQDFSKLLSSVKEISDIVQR"}, "source": "patent US20070264623A1", "about": "“Nanosensors” (PRESIDENT AND FELLOWS OF HARVARD COLLEGE, priority 2004, published 2007)", "key": {"[1]": {"target": "Abl tyrosine kinase (Abelson murine leukemia virus, UniProt P00521)"}, "[2]": {"target": "Abl (Homo sapiens, UniProt P00519)", "details": "read-out: reported inhibition constant; reported value; cited from earlier work"}, "[3]": {"details": "read-out: inhibition constant, estimated from linear region of normalized delta-G vs. small molecule concentration, fixed 100 nM ATP"}}, "note": "Like-named read-outs stand apart in the source and are kept apart here."}
{"molecule": "Cc1ccc([N+](=O)[O-])cc1Nc1nccc(-c2cccnc2)n1", "values": [{"measurement": "Ki", "setting": "[1]", "value": 0.11, "unit": "µM"}]}
{"molecule": "COC(=O)c1ccc(NCc2cc(O)ccc2O)cc1", "values": [{"measurement": "Ki", "setting": "[1]; [3]", "value": 1, "unit": "µM"}, {"measurement": "Ki", "setting": "[2]", "value": 9, "unit": "µM"}]}
{"molecule": "Cc1ccc(N)cc1Nc1nccc(-c2cccnc2)n1", "values": [{"measurement": "Ki", "setting": "[1]; [3]", "value": 0.08, "unit": "µM"}, {"measurement": "Ki", "setting": "[2]", "value": 1.5, "unit": "µM"}]}
